Assay results: PubChem BioAssay AID1996
≈ marks a conversion by molar mass, not a printed value.

Details: buffer; pH 7.4; 200.0 µM

## CC(C)c1ccc(NC2CCN(C(=O)OC(C)(C)C)CC2)cc1
  solubility kinetic: 4.4 µg/mL (≈ 13.8 µM)

## CCOC(=O)N1CCC(Nc2ccc(F)cc2)CC1
  solubility kinetic: 36.3 µg/mL (≈ 136 µM)

## CN(C)C1(CNC(=O)c2cccc(C#N)c2)CCCCC1
  solubility kinetic: 40.6 µg/mL (≈ 142 µM)

## CCOC(=O)N1CCC(Nc2cccc(C)c2)CC1
  solubility kinetic: 29.9 µg/mL (≈ 114 µM)

## CN1CCC(Nc2ccc(Cl)cc2)CC1
  solubility kinetic: 30.6 µg/mL (≈ 136 µM)

## CCCOc1ccc(C(=O)NCC2(N(C)C)CCCCC2)cc1
  solubility kinetic: > 47.8 µg/mL

## CN(C)c1ccc(C(=O)NCC2(N3CCCCC3)CCCCC2)cc1
  solubility kinetic: > 51.5 µg/mL

## N#CC1(Nc2ccccc2)CCN(Cc2ccccc2)CC1
  solubility kinetic: 39.7 µg/mL (≈ 136 µM)

## CC(C)(C)OC(=O)N1CCC(Nc2ccccc2)CC1
  solubility kinetic: 35.2 µg/mL (≈ 127 µM)

## O=C(NCC1(N2CCCCC2)CCCCC1)c1ccco1
  solubility kinetic: > 43.6 µg/mL

## O=C(NCC1(N2CCCCC2)CCCCC1)c1ccc(=O)[nH]c1
  solubility kinetic: > 47.6 µg/mL

## COc1cc(OC)cc(C(=O)NCC2(N3CCOCC3)CCCCC2)c1
  solubility kinetic: 45.9 µg/mL (≈ 127 µM)

## O=C(NCC1(N2CCCCC2)CCCCC1)c1cccc([N+](=O)[O-])c1
  solubility kinetic: > 51.8 µg/mL

## O=C(NCC1(N2CCCCC2)CCCCC1)c1cccs1
  solubility kinetic: > 46 µg/mL

## CCCN1CCC(Nc2cc(OC)cc(OC)c2)CC1
  solubility kinetic: > 41.8 µg/mL

## COc1cc(C(=O)NCC2(N3CCOCC3)CCCCC2)cc(OC)c1C
  solubility kinetic: 5.8 µg/mL (≈ 15.4 µM)

## CCN1CCC(Nc2ccc(Cl)cc2)CC1
  solubility kinetic: 25.5 µg/mL (≈ 107 µM)

## CCCOc1ccc(C(=O)NCC2(N(C)C)CCCCC2)cc1OC
  solubility kinetic: > 52.3 µg/mL

## O=C(NCC1(N2CCOCC2)CCCCC1)c1cc(F)c(F)cc1Cl
  solubility kinetic: > 55.9 µg/mL

## O=C(NCC1(N2CCCCC2)CCCCC1)c1ccc(F)cc1
  solubility kinetic: > 47.8 µg/mL

## CCOC(=O)N1CCC(Nc2ccc(C)cc2)CC1
  solubility kinetic: > 39.4 µg/mL

## CN1CCC(Nc2ccc(F)c(Cl)c2)CC1
  solubility kinetic: > 36.4 µg/mL
